In patent US20050202403A1 one finds β-galactosidase expression, strain CY2120 with Gpal data, which are given here for one substance.

By UniProt entry, the sequences of proteins in these tests, tags left out. Where a name states a change or a piece, a line headed by the entry shows the natural chain unless it says otherwise.
UniProt P41146: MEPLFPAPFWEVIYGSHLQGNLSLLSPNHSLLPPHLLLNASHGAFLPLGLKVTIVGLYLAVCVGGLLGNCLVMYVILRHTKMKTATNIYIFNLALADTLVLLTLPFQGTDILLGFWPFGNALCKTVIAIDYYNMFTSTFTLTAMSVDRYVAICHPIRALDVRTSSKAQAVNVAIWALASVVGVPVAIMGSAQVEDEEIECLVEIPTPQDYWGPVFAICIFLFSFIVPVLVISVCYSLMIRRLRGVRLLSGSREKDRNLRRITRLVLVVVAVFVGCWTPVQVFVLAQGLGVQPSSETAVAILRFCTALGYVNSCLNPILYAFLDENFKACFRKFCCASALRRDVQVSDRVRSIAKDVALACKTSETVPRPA
UniProt Q13519: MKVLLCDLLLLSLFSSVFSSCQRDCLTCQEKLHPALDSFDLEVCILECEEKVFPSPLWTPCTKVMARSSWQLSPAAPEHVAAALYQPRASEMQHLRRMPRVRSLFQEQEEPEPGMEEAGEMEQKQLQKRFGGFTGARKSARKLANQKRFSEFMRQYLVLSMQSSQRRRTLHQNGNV

The assay concerns the target human nociceptin receptor expressed as a fusion to the α-factor leader (human) (UniProt P41146). Nature of the assay: cell-based or functional assay.

The substance “nociceptin (from UniProt Q13519 130-146) (peptide)” gave a β-galactosidase expression, strain CY2120 with Gpal of 10 fold.
